Laboratory results published in PMC7769561, “Antileishmanial activity of synthetic analogs of the naturally occurring quinolone alkaloid N-methyl-8-methoxyflindersin” (PLoS ONE, 2020).

System: L. (V.) panamensis intracellular amastigotes
Experiment: Antileishmanial activity in L. (V.) panamensis intracellular amastigotes in hMDMs
Format: cell-based, Leishmania (Viannia) panamensis
Description: Next, 100 μL of the suspension was cultured in 96-well plates and infected with L. (V.) panamensis promastigotes (HMOM/COL/87/UA-140) at a 10:1 parasite:cell ratio. We incubated the plates in a 5% CO2 atmosphere for 4 h at 35°C. After incubation, we removed noninternalized parasites by washing the cells with 0.9% NaCl saline solution (Baxter International, Deerfield, IL, USA). The cells were incubated again for 24 h and then treated with each quinoline alkaloid–like compound at a concentration of 100, 10, 1, 0.1, and 0.01 μg/mL in a 5% CO2 atmosphere for 72 h at 36°C. Next, we quantified the percentage of infected cells using fluorescence microscopy, as previously described by Pérez-Cordero in 2011 [23], and quantified the parasite load (amount of intracellular promastigotes and amastigotes per cell) using Giemsa staining and flow cytometry (Cytomics FC 500 MPL; Beckman Coulter, Brea, CA, USA). […] Results were expressed as EC50 using Prism GraphPad software’s probit nonlinear regression analysis (https://www.graphpad.com/scientific-software/prism/). […]
The percentage inhibition was used to calculate EC50 by nonlinear regression analysis (fluorescence microscopy), while the parasite burden was evaluated as the percentage of intracellular promastigotes and amastigotes in 100 infected cells (Giemsa staining). […]

Nc1ccc2cccc(O)c2n1 [Compound 8, 2-amino-8-hydroxyquinoline]
SI (selectivity index = CC50/EC50): 5.44 and > 3

Where “and” joins values, the source holds several entries; their conditions need not be identical. Equal entries are not always repeated.
